# Apparent affinities of Ab-91 variants for a coronavirus HR2 peptide

Reference: Engelhart et al. 2022, doi:10.1038/s41597-022-01779-4. File: FLAb, binding data.

The target is the same throughout: PDVDLGDISGINAS, from the HR2 region of SARS-CoV-2 spike.

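Phage display of a naive human antibody library on the peptide gave the parent. The library (AAYL51) carries one to three amino acid substitutions per variant, with no insertions or deletions. In AlphaSeq, yeast of one mating type display the scFv and yeast of the other type display the target. Mating (16 h, 30 °C) was followed by selection of diploids and sequencing of their barcodes. Scores were corrected for input abundance and mapped to Kd with protein pairs of known affinity run in the same pool. Mating was done three times.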

Parent scFv Ab-91: VL joined to VH by a (GGGGS)3 linker. Changes lie in the heavy chain CDRs alone.
VL: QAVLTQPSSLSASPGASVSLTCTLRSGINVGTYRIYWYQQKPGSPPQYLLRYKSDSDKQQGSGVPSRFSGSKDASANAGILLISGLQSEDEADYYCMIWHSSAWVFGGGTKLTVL
VH: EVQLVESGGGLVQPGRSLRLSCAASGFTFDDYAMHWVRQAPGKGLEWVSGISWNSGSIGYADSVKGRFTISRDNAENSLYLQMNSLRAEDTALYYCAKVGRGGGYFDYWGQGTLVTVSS

Each variant is given by its three heavy chain CDRs, as the data file delimits them; those of the parent are GFTFDDYAMH, GISWNSGSIGYADSVK, VGRGGGYFDY. Scale: log10 of Kd in nM, estimated from mating counts; low values are strong binders. A pair that was not seen in that replicate is written "ND"; this usually means weak binding, but a binder can also be missed. In this assay the parent's reference entry averaged 1.86; its copy inside this library read 0.88.

| CDR-H1 | CDR-H2 | CDR-H3 | log10 Kd (nM) by replicate | empty controls |
|---|---|---|---|---|
| GFTFDDYDMH | GISWNSRSIGYAPSVK | VGRGGGYFDY | ND / ND / ND | 0 of 9 |
| GFTFDDYAMH | WISWNRGSHGYADSVK | VGRGGGYFDY | ND / ND / ND | 1 of 9 (4.65) |
| GFTFDDYAMH | GISWKIGSIGYADSVK | VGRGSGYFDY | ND / ND / ND | 1 of 9 (4.31) |
| GFTFDHYAMH | VISWNSGGIGYADSVK | VGRGGGYFDY | ND / ND / ND | 4 of 9 (4.58) |
| GFTFDDYIMH | GISWNSGSIGYADSVK | VGRKNGYFDY | 3.39 / ND / ND | 0 of 9 |
| GFTFDDYAMH | GISWNSGGIGYADSVK | VGRWGGYCDY | 4.05 / ND / ND | 6 of 9 (5.08) |
| GFKFDDYAMH | GLSWNSGSIGYADSVK | VGRRGGYFDY | ND / ND / ND | 2 of 9 (1.87) |
| GFTLDDYAMH | GIEWNSGSYGYADSVK | VGRGGGYFDY | ND / ND / ND | 0 of 9 |
| GFTNADYAMH | GISWNSGSIGYADSNK | VGRGGGYFDY | ND / ND / ND | 0 of 9 |
| GFTFDDYAMH | GISWISGSIGYYVSVK | VGRGGGYFDY | ND / ND / ND | 0 of 9 |
| GFTFDDYAMH | SISWNSGSIGYADSVK | VRRGVGYFDY | ND / ND / ND | 0 of 9 |
| GFTNDDYAMH | GISWNRGSIGYADSYK | VGRGGGYFDY | ND / ND / ND | 1 of 9 (5.81) |
| GFTFDDYAMH | GISSNSGLIGYADSVK | VGRGGGYFPY | 4.69 / 3.77 / ND | 3 of 9 (3.94) |
| GFTFDDYAMH | GISWNCGSIGYADSTK | VGRKGGYFDY | 3.91 / 3.41 / 3.65 | 1 of 9 (3.22) |
| GFHFDDYAFH | GISWNSGSIGYAISVK | VGRGGGYFDY | 5.03 / 6.22 / ND | 2 of 9 (5.04) |
| GFTFDDYAMH | GISWNSHSIGYADSVQ | VGRGGEYFDY | 1.62 / 1.61 / 1.15 | 1 of 9 (5.69) |
| GFTFQDYNMH | GISWNSGGIGYADSVK | VGRGGGYFDY | ND / ND / ND | 0 of 9 |
| GFTFDDYAMH | GISWNEGSIGYADFVK | VGVGGGYFDY | ND / ND / ND | 1 of 9 (3.04) |
| GFTFDDYARH | GISWNSGSRGYADSVK | VGRGGDYFDY | ND / ND / ND | 0 of 9 |
| GFTFDDYAMH | GISWNSGSIGYDDSVK | VQRGGRYFDY | ND / 4.00 / ND | 0 of 9 |
| GFTFDDYMMH | GISRNSGSIGYADSVK | RGRGGGYFDY | ND / 4.04 / 4.53 | 2 of 9 (4.31) |
| GFTFDDYAMH | GIRWNSGSIGEADSVK | VGQGGGYFDY | ND / ND / 3.95 | 0 of 9 |
| GATFDDYAMH | GISWNSGSIGYADSVF | VGRGGKYFDY | 4.87 / ND / ND | 4 of 9 (4.51) |
| GFTFDDYAMC | GISWISGSIGYADSVK | YGRGGGYFDY | ND / ND / ND | 0 of 9 |
| QFTFDDYAMH | GISVNGGSIGYADSVK | VGRGGGYFDY | ND / 4.57 / 5.38 | 2 of 9 (4.17) |
| GFTADDYAMH | GISWNSGSIGYALSVK | SGRGGGYFDY | 4.96 / ND / ND | 8 of 9 (5.19) |
| GFTFDDPAMH | GISPNSESIGYADSVK | VGRGGGYFDY | 1.55 / 0.95 / 0.88 | 0 of 9 |
| GFTFDDGAMH | GISWNSGSIGYYDSVK | HGRGGGYFDY | ND / ND / ND | 0 of 9 |
| GFTFDDYAMH | GISWVSGSIGYADSVK | VGRDGGYFDR | 5.55 / ND / ND | 2 of 9 (4.54) |
| GFTFDDYANH | GISWNSGSIGYADSVK | SGRGGGYFYY | 4.65 / ND / ND | 2 of 9 (4.25) |
| GFTFLDYAMH | GISWNSGSIGYADSVK | IGRGGGYFDY | 1.04 / 1.05 / 0.69 | 3 of 9 (4.00) |
| GFTFDDYAMH | GISWNKGSIGYADSVF | VGRTGGYFDY | 4.74 / ND / ND | 1 of 9 (4.21) |
| GFTFDDYAMH | GISWNSGSPGYADSCK | VGCGGGYFDY | 4.56 / ND / ND | 4 of 9 (4.02) |
| GFTFDDYAMH | GISPNRGSVGYADSVK | VGRGGGYFDY | 0.78 / 0.77 / 0.18 | 1 of 9 (5.25) |
| GFQFDDPAMH | GISWNSGSIGYADSVK | VGRGGGYFDY | 4.09 / 5.68 / 4.39 | 3 of 9 (4.43) |
| GFTRDDYAMH | GISWMSGEIGYADSVK | VGRGGGYFDY | ND / ND / ND | 0 of 9 |
| GFTFDDYSMH | GISWNSGSIGYADSVK | VGRGGGNFDD | 2.18 / 2.16 / 1.90 | 3 of 9 (4.72) |
| GFTFDDYAMH | GISWNSGSIGYADSFK | AGRGGGPFDY | ND / ND / ND | 0 of 9 |
| GFTFDDCAMH | GISWNSGSIGYADSVV | VGRGGGYFDY | 4.18 / ND / 3.93 | 3 of 9 (4.50) |
| GFTFDDYAKT | GISWNSGSIGYADSVK | VGRGGGAFDY | 4.25 / 3.67 / ND | 1 of 9 (4.05) |
| GFTFDDYAMH | GISWNSKSIGYADSKK | VGRGGGYFDY | ND / ND / ND | 1 of 9 (3.97) |
| GFTFDDYAMH | GISWPSLSIGYADSVK | VGRGGGYFDY | 6.01 / 4.38 / 5.25 | 4 of 9 (4.77) |
| GFTFDDYAMH | LIRWNSGSIGYADSVK | VGRGGLYFDY | 5.99 / 5.01 / ND | 1 of 9 (5.32) |
| GFTFDDYAMH | GISWNSGSIGYCDSVK | VIYGGGYFDY | ND / ND / ND | 2 of 9 (4.24) |
| GFTFDDYAMG | GISWHSTSIGYADSVK | VGRGGGYFDY | 3.98 / 4.39 / ND | 3 of 9 (4.23) |
| GFTFDDYAMH | GSSWNSGSIGYADSVC | VGRGGGYFDY | 2.70 / 3.62 / 2.36 | 2 of 9 (4.53) |
| GFTFDDVAQH | GISWNSGSIGYADSEK | VGRGGGYFDY | 5.81 / 4.21 / ND | 3 of 9 (3.98) |
| GFTFDDYAMH | GISWHSGSIGYEDSVK | VCRGGGYFDY | ND / 3.75 / 5.51 | 4 of 9 (4.92) |
| GFTFDDYAMH | GISWNSGSIGYADSVD | VGRGGGYFDY | 1.45 / 1.50 / 0.83 | 4 of 9 (5.08) |
| FFTFDDYAMP | GISWMSGSIGYADSVK | VGRGGGYFDY | 5.00 / 5.81 / 4.55 | 5 of 9 (4.85) |
| GFTFDDYSMH | GISWNLGSIGYADSVQ | VGRGGGYFDY | 5.53 / ND / ND | 4 of 9 (4.65) |
| GFTFDDYPMH | GISWNSGSIGYADSVK | VGRGMGYFDT | ND / ND / 4.66 | 0 of 9 |

Empty control strains, which show no peptide, gave a signal in 21% of pairings with library AAYL51; the median was 4.54 and 95% of these signals were weaker than 3.26. No background was subtracted. For each scFv, signals with the empty controls are counted beside the result, with their mean in brackets.